Usually IC50 stands for the midpoint of a concentration-inhibition curve. Low values mean higher potency, high ones lower potency.

Sequences of proteins named here, by UniProt entry; tags and fusion partners are left off. A change or cut given only in a name is not applied to a line headed by its entry.
UniProt P05187: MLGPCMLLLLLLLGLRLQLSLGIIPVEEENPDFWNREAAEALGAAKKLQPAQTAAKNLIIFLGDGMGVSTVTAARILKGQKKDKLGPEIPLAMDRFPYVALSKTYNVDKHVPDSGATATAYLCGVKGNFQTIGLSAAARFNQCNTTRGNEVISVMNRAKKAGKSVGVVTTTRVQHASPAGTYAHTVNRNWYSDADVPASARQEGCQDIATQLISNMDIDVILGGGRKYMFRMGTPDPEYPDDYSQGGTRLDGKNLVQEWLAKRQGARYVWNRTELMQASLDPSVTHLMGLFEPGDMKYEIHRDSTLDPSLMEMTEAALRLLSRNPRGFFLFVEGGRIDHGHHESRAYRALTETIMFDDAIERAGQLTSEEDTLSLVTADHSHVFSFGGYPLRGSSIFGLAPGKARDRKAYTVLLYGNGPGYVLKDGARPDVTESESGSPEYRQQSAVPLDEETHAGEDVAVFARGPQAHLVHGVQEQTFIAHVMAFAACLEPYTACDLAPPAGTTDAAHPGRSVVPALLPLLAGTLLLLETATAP

The values below come from ChEMBL document CHEMBL5150009, “Specific Inhibitor of Placental Alkaline Phosphatase Isolated from a DNA-Encoded Chemical Library Targets Tumor of the Female Reproductive Tract” (J Med Chem, 2021).

This test deals with Alkaline phosphatase, placental type (Homo sapiens, UniProt P05187). Put plainly: Inhibition of PLAP (unknown origin).

`Cc1nc2ccccc2n1CC(=O)c1ccc(O)c(O)c1` gave an IC50 of 2.5 µM.
